Earlier results in patent US6953810B2, “Nicotinamide biaryl derivatives useful as inhibitors of PDE4 isozymes” (Pfizer Inc, priority 2001, dated 2005).

Tested on: lung, BAL, airway and pleural eosinophilia
Settings: guinea pig, in vivo; cited from earlier work

Question: For `COc1ccc(C(=O)Nc2c(Cl)cncc2Cl)c2cccnc12` [Example D4418], which “inhibition of antigen-induced lung, BAL or airway eosinophilia” value is on record?
Answer: active
